Consider 1 compound from patent US11673866B2, “Estrogen receptor beta ligands for the prevention and treatment of multiple sclerosis (MS) and other demyelinating, inflammatory and neurodegenerative diseases” (The Board of Trustees of the University of Illinois, priority 2018, dated 2023).

Entries after “also recorded” stand apart in the source; their conditions may differ.

Data set [1] can be described thus: Uterus to body weight ratio in EAE mice. It counts as in vivo, mouse. Particulars: female EAE mice. From the text:
Estrogens increase uterine weight by acting primarily through ERα (Hewitt and Korach, 2003).

For data set [2], the system named is callosal axons. Description: Callosal compound action potential (CAP) recordings in brain slices of EAE mice. More on the design: key: ‘+’ indicate marker was significantly (p ≤ 0.05) increased in treatment group relative to vehicle; ‘−’ indicates marker was significantly (p ≤ 0.05) decreased in treatment group relative to vehicle; ○: ‘o’ indicate marker did not change relative to vehicle. It counts as in vivo, mouse. Particulars: vs vehicle. As to the method:
Electrophysiology: To assess functional conductivity across the CC, electrophysiological recordings of compound action potentials (CAPs) were measured as previously described (Crawford et al., 2009; Crawford et al., 2010). Coronal brain slices were prepared from adult (3 to 4 month old) C57BL/6 female mice. Briefly, mice were deeply anesthetized under isoflurane and decapitated. The brain was removed and submerged in partially frozen “slushy” solution of slicing buffer containing (in mM): 87 NaCl, 75 sucrose 2.5 KCl, 0.5 CaCl2), 7 MgCl2, 1.25 NaH2PO4, 25 NaHCO3, 10 glucose, 1.3 ascorbic acid, 0.1 kynurenic acid, 2.0 pyruvate, and 3.5 MOPS, bubbled with 5% CO2+95% O2 (Lauderdale et al., 2015). Coronal slices (350 μm) were prepared using a Leica VT 1000S Vibratome (Bannockburn, Ill.) and subsequently incubated for 45 minutes at 35° C. in slicing buffer. Following incubation, slices were allowed to cool to room temperature for 15 minutes then transferred to ACSF […] containing (in mM): 125 NaCl, 2.5 KCl, 2.5 CaCl2), 1.3 MgCl2, 1.25 NaH2PO4, 26.0 NaHCO3, and 15 glucose, oxygenated with 5% CO2+95% O2. Slices were equilibrated in the standard ACSF for a minimum of 15-20 minutes prior to electrophysiological recordings. During electrophysiological recordings, slices were continuously perfused with oxygenated ACSF maintained at a flow rate of 1 mL/min. For recording CAPs, an Axon Digidata 1550 was used with a Multiclamp 700B Amplifier and PClamp 10.4 Software (Molecular Devices, Sunnyvale, Calif.). Continuous recordings for CC conduction experiments were low-pass filtered at 10 kHz and digitized at 200 kHz. All experiments were conducted at room temperature (24-26° C.). To stimulate the CC fiber tract, a concentric bipolar stimulating electrode (FHC Neural microTargeting Worldwide, Bowdoin, Me., USA) was placed approximately 1 mm away across from a recoding electrode (glass micropipette filled with ACSF) with a resistance of 1-3 MO. To elicit CAPs, an episodic stimulation protocol was created consisting of 8 consecutive sweeps, each 12 ms long, with a 5-sec delay between sweeps and an immediate stimulus (0.01 ms duration) after the start of each sweep (Crawford et al., 2009a). Stimulus intensity was adjusted manually using an ISO-Flex stimulator (A.M.P.I). […] Electrophysiology data were analyzed using Clampfit 10.4 software (Molecular Devices, Sunnyvale, Calif.) and OriginPro 2016 64 Bit (OriginLab Corporation)
Large white matter tracts, such as the CC, are especially vulnerable to demyelination and axonal damage in MS and EAE (Ozturk et al., 2010; Mangiardi et al., 2011). […] Thus, callosal CAPs were recorded in brain slices obtained from normal, IndCl, pre-E2, IndCl-o-Cl and IndCl-o-Me-treated mice (FIGS. 8A-D). […]

The mark [3] stands for this setting: Post (therapeutic, postEAE) treatment of EAE mice.
Setting [4] is: Pre (prophylactic, preEAE) E2 treatment of EAE mice.

Consider `C[C@]12CC[C@@H]3c4ccc(O)cc4CC[C@H]3[C@@H]1CC[C@@H]2O` [E2, 170 estradiol], for which the “uterus to body weight ratio” value in data set [1] (prophylactic E2 (preEAE)) and in data set [1] (therapeutic treatment (postEAE)) was “fourfold increase; also recorded: significantly increased” in each case. Moreover, the “Electrophysiology: N1 amplitude” value in data set [2] (setting [3]) and in data set [2] (setting [4]) was “○” throughout. Moreover, the “Electrophysiology: N2 amplitude” value in data set [2] (setting [3]) and in data set [2] (setting [4]) was “○” throughout.
